Values of other authors as cited in patent US20140242599A1, “MATERIALS AND METHODS FOR DETERMINING SENSITIVITY POTENTIAL OF COMPOUNDS” (ELECTROPHORETICS LIMITED, priority 2011, published 2014).

Details: words printed in the LLNA EC3 column; cited from earlier work

SMILES: O=[N+]([O-])c1ccc(S(=O)(=O)O)c([N+](=O)[O-])c1
- LLNA outcome / sensitizer potency class: (strong)
